Laboratory results from US7169801B2, “Histone deacetylase inhibitors” (Takeda San Diego, Inc., priority 2003, dated 2007).

Chains of the proteins cited; added tags and fusions are not shown. A line that says so, or that is headed by a name, gives the form on record, which may keep a tag or linker.
UniProt Q9BY41, with tags, fused parts or gaps T69A: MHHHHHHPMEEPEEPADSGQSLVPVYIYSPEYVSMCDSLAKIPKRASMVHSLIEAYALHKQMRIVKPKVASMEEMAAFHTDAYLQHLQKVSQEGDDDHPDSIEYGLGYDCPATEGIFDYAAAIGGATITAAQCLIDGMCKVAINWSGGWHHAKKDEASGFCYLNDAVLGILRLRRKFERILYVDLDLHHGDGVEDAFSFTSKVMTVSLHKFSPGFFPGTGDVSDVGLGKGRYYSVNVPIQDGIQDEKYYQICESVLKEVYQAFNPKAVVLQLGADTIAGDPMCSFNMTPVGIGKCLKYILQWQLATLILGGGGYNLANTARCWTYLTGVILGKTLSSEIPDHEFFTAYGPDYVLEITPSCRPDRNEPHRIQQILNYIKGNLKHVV

Target: HDAC8 (Homo sapiens, UniProt Q9BY41, T69A)
Experiment: biochemical

Compound `O=C(CCCCCCC(=O)Nc1ccccc1)NO` [SAHA, suberanilohydroxamic acid] has an IC50 of 242 nM.
